## CycPeptMPDB entries from one study

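The data file gives no further conditions (lipid, pH, time, direction or concentration), and values from different papers need not be comparable. Other peptides of the study may be missing here. Entries at the database's floor value (log10 P of -10) are not listed.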

PAMPA measures passive passage through an artificial lipid membrane. Permeability is given as log10 of P in cm/s; higher (less negative) is more permeable.

structure (SMILES),PAMPA (log10 cm/s)
CCCC[C@@H]1NC(=O)[C@H](CC(C)C)N(C)C(=O)CN(CCOC)C(=O)[C@H](CC(C)C)NC(=O)CN(CCCCc2ccccc2)C(=O)[C@H]2CCCN2C1=O,-5.75
CCCC[C@@H]1NC(=O)[C@H](CC(C)C)N(C)C(=O)CN(CCOC)C(=O)[C@H](Cc2ccc3ccccc3c2)NC(=O)CN(CCCOC(C)C)C(=O)[C@H]2CCCN2C1=O,-5.26
CCCC[C@@H]1NC(=O)[C@H](CC(C)C)N(C)C(=O)CN(CC2CCOCC2)C(=O)[C@H](C)NC(=O)CN(Cc2cc(CC(C)C)on2)C(=O)[C@H]2CCCN2C1=O,-5.66
CCCC[C@@H]1NC(=O)[C@H](CC(C)C)N(C)C(=O)CN(CCCN2CCCC2=O)C(=O)[C@H](C)NC(=O)CN(CCN2CCOCC2)C(=O)[C@H]2CCCN2C1=O,-9.00
CCCC[C@@H]1NC(=O)[C@H](CC(C)C)N(C)C(=O)CN(Cc2ccccc2)C(=O)[C@H](CC(C)C)NC(=O)CN(Cc2ccc(Cl)cc2)C(=O)[C@H]2CCCN2C1=O,-6.63
CCCC[C@@H]1NC(=O)[C@H](CC(C)C)N(C)C(=O)CN(Cc2ccccc2)C(=O)[C@H](Cc2ccccc2)NC(=O)CN(Cc2cc(CC(C)C)on2)C(=O)[C@H]2CCCN2C1=O,-6.97
CCCC[C@@H]1NC(=O)[C@H](CC(C)C)N(C)C(=O)CN(CCCc2ccccc2)C(=O)[C@H](Cc2ccc3ccccc3c2)NC(=O)CN(CCCCc2ccccc2)C(=O)[C@H]2CCCN2C1=O,-9.27
CCCC[C@@H]1NC(=O)[C@H](CC(C)C)N(C)C(=O)CN(CC2CCCCC2)C(=O)[C@H](CC(C)C)NC(=O)CN(Cc2ccccc2Cn2cccn2)C(=O)[C@H]2CCCN2C1=O,-6.31
CCCC[C@@H]1NC(=O)[C@H](CC(C)C)N(C)C(=O)CN(Cc2ccccc2)C(=O)[C@H](C)NC(=O)CN(Cc2ccc3c(c2)OCO3)C(=O)[C@H]2CCCN2C1=O,-5.11
CCCC[C@@H]1NC(=O)[C@H](CC(C)C)N(C)C(=O)CN(CC2CCCCC2)C(=O)[C@H](C)NC(=O)CN(Cc2ccccc2Cn2cccn2)C(=O)[C@H]2CCCN2C1=O,-4.98
CCCC[C@@H]1NC(=O)[C@H](CC(C)C)N(C)C(=O)CN(CCCc2cnn(C)c2)C(=O)[C@H](C)NC(=O)CN(CCCOC(C)C)C(=O)[C@H]2CCCN2C1=O,-6.67
CCCC[C@@H]1NC(=O)[C@H](CC(C)C)N(C)C(=O)CN(CCc2cccnc2)C(=O)[C@H](Cc2ccc3ccccc3c2)NC(=O)CN(Cc2cc(CC(C)C)on2)C(=O)[C@H]2CCCN2C1=O,-6.93

Extract of 2 entries:

{"smiles": "CCCC[C@@H]1NC(=O)[C@H](CC(C)C)N(C)C(=O)CN(CC2CCCCC2)C(=O)[C@H](C)NC(=O)CN(Cc2ccccc2Cn2cccn2)C(=O)[C@H]2CCCN2C1=O", "PAMPA (log10 cm/s)": "-4.98"}
{"smiles": "CCCC[C@@H]1NC(=O)[C@H](CC(C)C)N(C)C(=O)CN(CCc2cccnc2)C(=O)[C@H](Cc2ccc3ccccc3c2)NC(=O)CN(Cc2cc(CC(C)C)on2)C(=O)[C@H]2CCCN2C1=O", "PAMPA (log10 cm/s)": "-6.93"}

Values of Furukawa et al. 2016, doi:10.1021/acs.jmedchem.6b01246, as listed in CycPeptMPDB.